{"source": "ChEMBL document CHEMBL1649420", "about": "“Identifying chelators for metalloprotein inhibitors using a fragment-based approach” (J Med Chem, 2011)", "target": "T1, Polyunsaturated fatty acid 5-lipoxygenase (Homo sapiens) (UniProt P09917)", "T1 sequence (whole entry)": "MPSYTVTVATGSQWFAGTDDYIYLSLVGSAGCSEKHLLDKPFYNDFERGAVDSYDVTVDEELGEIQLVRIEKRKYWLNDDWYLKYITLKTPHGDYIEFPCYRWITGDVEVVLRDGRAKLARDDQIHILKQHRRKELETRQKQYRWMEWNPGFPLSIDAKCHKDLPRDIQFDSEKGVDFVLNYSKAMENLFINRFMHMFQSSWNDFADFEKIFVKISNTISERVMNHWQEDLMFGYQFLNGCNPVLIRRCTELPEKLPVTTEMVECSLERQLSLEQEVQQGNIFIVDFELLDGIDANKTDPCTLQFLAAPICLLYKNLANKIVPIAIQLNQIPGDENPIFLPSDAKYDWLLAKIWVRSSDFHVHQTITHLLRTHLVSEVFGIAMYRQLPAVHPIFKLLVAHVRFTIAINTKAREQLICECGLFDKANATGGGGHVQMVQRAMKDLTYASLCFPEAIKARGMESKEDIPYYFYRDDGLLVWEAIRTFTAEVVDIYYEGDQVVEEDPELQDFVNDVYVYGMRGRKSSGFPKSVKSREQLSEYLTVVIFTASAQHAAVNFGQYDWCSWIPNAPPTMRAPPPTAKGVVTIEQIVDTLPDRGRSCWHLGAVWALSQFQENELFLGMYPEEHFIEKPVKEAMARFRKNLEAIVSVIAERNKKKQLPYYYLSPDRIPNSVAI", "assay": "Inhibition of human recombinant 5-lipoxygenase at 1 mM after 10 mins by fluorescence assay"}
{"smiles": "O=C(O)c1ccc2cccc(O)c2n1", "values": [{"measurement": "inhibition", "result": 61, "unit": "%"}]}
